This note sets out measurements from patent publication US20140128364A1, “THERAPEUTIC USES OF TIGEMONAM AND CARUMONAM” (priority 2012, published 2014).

As a reminder, the Km is the concentration of substrate that gives half-maximal velocity. A word on the Vmax: it is the top rate of the reaction or transport when substrate is in excess. For orientation: kcat means the maximal rate divided by the concentration of active sites. As usually defined, the kcat/Km is the second-order rate constant that governs catalysis at low substrate concentration.

The subject of this data set is NC(=O)OC[C@@H]1[C@H](NC(=O)/C(=N\OCC(=O)O)c2csc(N)n2)C(=O)N1S(=O)(=O)O. The data set is described as follows: purified protein, by the assay type. The following applies: other: hydrolysis by purified KPC-2, 50 mM sodium phosphate pH 7.0, 0.1 mg/ml BSA, 37° C., OD 318 nm.

Consider “purified KPC-2 β-lactamase (Klebsiella pneumoniae)”, for which the Km was 602.7 µM, the Vmax turned out to be 20.3 µM/min, the kcat is 0.9 s⁻¹ and the kcat/Km was 1500 M⁻¹ s⁻¹.
